From patent US8309097B2, “C-type lectin binding molecules, identification and uses thereof” (Vereniging voor Christelijk Wetenschappelijk Onderwijs, priority 2002, dated 2012)

Chains of the proteins cited; added tags and fusions are not shown.
UniProt Q9NNX6, whole entry V351G: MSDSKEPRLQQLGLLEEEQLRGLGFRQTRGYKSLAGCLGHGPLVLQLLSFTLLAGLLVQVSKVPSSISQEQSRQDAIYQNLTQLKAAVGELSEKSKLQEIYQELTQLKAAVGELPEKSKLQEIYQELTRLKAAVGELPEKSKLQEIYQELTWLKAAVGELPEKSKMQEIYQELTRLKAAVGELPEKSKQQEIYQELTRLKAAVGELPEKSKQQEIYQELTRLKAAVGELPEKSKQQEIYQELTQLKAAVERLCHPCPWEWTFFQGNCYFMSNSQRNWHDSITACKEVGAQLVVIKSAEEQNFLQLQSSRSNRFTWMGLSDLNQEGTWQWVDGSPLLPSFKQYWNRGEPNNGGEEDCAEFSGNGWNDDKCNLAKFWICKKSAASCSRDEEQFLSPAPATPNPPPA

Target: DC-SIGN V351G mutant (Homo sapiens, UniProt Q9NNX6, V351G)

B1: ICAM-3: cellular ligand of DC-SIGN (protein)
chain: QEFLLRVEPQNPVLSAGGSLFVNCSTDCPSSEKIALETSLSKELVASGMGWAAFNLSNVTGNSRILCSVYCNGSQITGSSNITVYRLPERVELAPLPPWQPVGQNFTLRCQVEDGSPRTSLTVVLLRWEEELSRQPAVEEPAEVTATVLASRDDHGAPFSCRTELDMQPQGLGLFVNTSAPRQLRTFVLPVTPPRLVAPRFLEVETSWPVDCTLDGLFPASEAQVYLALGDQMLNATVMNHGDTLTATATATARADQEGAREIVCNVTLGGERREARENLTVFSFLGPIVNLSEPTAHEGSTVTVSCMAGARVQVTLDGVPAAAPGQPAQLQLNATESDDGRSFFCSATLEVDGEFLHRNSSVQLRVLYGPKIDRATCPQHLKWKDKTRHVLQCQARGNPYPELRCLKEGSSREVPVGIPFFVNVTHNGTYQCQASSSRGKYTLVVVMDIEAGSSH
binding to DC-SIGN V351G mutant: abrogated
